A word on the inhibition: it is the change of the read-out against control, counted positive when it falls.

Protein sequences, listed by entry. Tags and fused reporters are not part of them. Lines headed by an entry give the natural chain unless they say otherwise; changes in a name come on top.
UniProt Q9P0U3: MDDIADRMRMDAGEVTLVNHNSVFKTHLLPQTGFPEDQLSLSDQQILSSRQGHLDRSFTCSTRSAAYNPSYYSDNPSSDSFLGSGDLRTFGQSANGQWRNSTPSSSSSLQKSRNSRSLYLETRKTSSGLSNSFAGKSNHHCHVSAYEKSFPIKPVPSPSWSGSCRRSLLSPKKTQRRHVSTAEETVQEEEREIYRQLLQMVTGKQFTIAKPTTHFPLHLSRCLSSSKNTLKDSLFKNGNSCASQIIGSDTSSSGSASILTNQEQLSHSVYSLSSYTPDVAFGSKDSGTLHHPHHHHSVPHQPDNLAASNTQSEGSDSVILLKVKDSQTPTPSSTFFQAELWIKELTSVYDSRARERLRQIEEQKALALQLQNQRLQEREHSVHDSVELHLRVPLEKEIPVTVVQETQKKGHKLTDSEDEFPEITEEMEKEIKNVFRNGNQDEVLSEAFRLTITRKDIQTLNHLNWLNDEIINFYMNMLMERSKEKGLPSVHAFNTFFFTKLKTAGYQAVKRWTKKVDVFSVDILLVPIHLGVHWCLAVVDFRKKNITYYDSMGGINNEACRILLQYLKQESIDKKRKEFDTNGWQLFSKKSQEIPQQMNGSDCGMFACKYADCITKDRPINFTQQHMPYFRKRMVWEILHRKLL

Molecules are shown by their SMILES. This is a selection; strong and weak results do not stand in their true shares. The source made the active and inactive calls.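 The calls were made as follows: active = inhibition at least 30% at 10 µM, raw YFP signal under a set limit, fluorescence ratio 0.5 to 1.5; inactive = the rest.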

This assay has as its target Sentrin-specific protease 1 (Homo sapiens) (UniProt Q9P0U3). Description: blockers of SENP1 SUMO protease activity – biochemical, FRET, uHTS, primary screen (AID 624204).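 Also: 0% = enzyme with DMSO and 100% = no enzyme wells.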 As to conditions: recombinant SENP1 catalytic domain, CyPet-SUMO1-YPet FRET cleavage; at 10 µM; stronger effect = higher value. Put shortly:
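Compound: 10 µM single point, 0.5% DMSO; Test system: hSENP1 catalytic domain, recombinant; Timing: 50 min reaction at room temperature; Technique: FRET, CFP and YFP emission; Control set: no-enzyme wells low, DMSO-plus-enzyme wells high control.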
Turning to `c1nnnn1CCn1cnnn1`, the inhibition was inactive: 2.69%.

In the case of `CC(C)C(=O)NC(Sc1ccccc1)C(Cl)(Cl)Cl` (stereo unspecified), the inhibition is inactive: 0.689%.

Take `O=P(Nc1nccs1)(c1ccccc1)c1ccccc1`: the inhibition was inactive: 3.44%.

As for `C[C@H]1OP(=O)(Oc2ccccc2)[C@H](O)[C@H](O)[C@H]1N=[N+]=[N-]` (stereo partly specified), the inhibition is inactive: -1.33%.

In the case of `O=P(Nc1nc2ccccc2s1)(c1ccccc1)c1ccccc1`, the inhibition was inactive: 1.2%.

As for `Nc1ccc(CCCCOc2ccccc2)cc1`, the inhibition is inactive: -0.0909%.

Consider `COc1ccc(N)c([N+](=O)[O-])c1[N+](=O)[O-]`, for which the inhibition was inactive: 3.94%.

Turning to `O=P(Nc1ccccn1)(c1ccc(Br)cc1)c1ccc(Br)cc1`, the inhibition is inactive: 0.118%.

As to `CN(C)C1(CNC(=O)c2ccc(Cl)c(S(N)(=O)=O)c2)CCCCC1`, the inhibition is inactive: 2.27%.

Regarding `Nc1ccc([As](=O)(O)c2ccc([N+](=O)[O-])cc2)cc1`, the inhibition was inactive: 1.16%.

As for `C(Cc1nn[nH]n1)Cc1nn[nH]n1`, the inhibition was inactive: 2.23%.

Regarding `O=C(OC1CN2CCC1CC2)c1cccc(Cl)c1` (stereo unspecified), the inhibition was inactive: 1.51%.

For `O=[N+]([O-])c1ccc(O)c(/C=N/Nc2ccc([N+](=O)[O-])cc2[N+](=O)[O-])c1`, the inhibition was inactive: 1.28%.

With `O=[N+]([O-])c1ncn(CCn2cnc([N+](=O)[O-])n2)n1`, the inhibition is inactive: 1.45%.

For the compound `CC(=O)NC(SC(=S)N(C)C)C(Cl)(Cl)Cl` (stereo unspecified), the inhibition was inactive: 2.95%.

Regarding `O=[As](O)(c1ccccc1)c1ccc(O)cc1`, the inhibition was inactive: 0.059%.

For `O=P1(N(CCCl)CCCl)OCCC2CCCCN21` (stereo unspecified), the inhibition is inactive: 1.27%.

On to `CCNC(=S)/N=C(\N)N[N+](=O)[O-]`, for which the inhibition was inactive: 3.6%.

`O=C(NC1CCS(=O)(=O)C1)NP(=S)(Oc1ccccc1)Oc1ccccc1` (stereo unspecified): the inhibition is inactive: -2.45%.

On to `Cc1ccc(NP(=O)(Oc2cccc(C)c2)Oc2cccc(C)c2)nc1`, for which the inhibition was inactive: -1.04%.

`c1ccc(-c2nn[nH]n2)c(-c2nn[nH]n2)c1`: the inhibition is inactive: -1.97%.

Take `CN(C)C(=O)Oc1noc2ccccc12`: the inhibition was inactive: -0.859%.

For the compound `O=c1c2cc([N+](=O)[O-])ccc2[nH]c2c([N+](=O)[O-])cc([N+](=O)[O-])cc12`, the inhibition was active: 56.2%.

In the case of `Cc1ccccc1OP(=O)(Nc1ccccn1)Oc1ccccc1C`, the inhibition was inactive: 1.45%.

On to `CC(NC(=O)COC(=O)C(O)(c1ccccc1)c1ccccc1)c1ccccc1` (stereo unspecified), for which the inhibition is inactive: 2.46%.

For `Cc1ccc(OP(=O)(Nc2ccccn2)Oc2ccc(C)cc2)cc1`, the inhibition was inactive: -1.1%.

As to `CC(=O)NC(SC(=S)N(CC(C)C)CC(C)C)C(Cl)(Cl)Cl` (stereo unspecified), the inhibition is inactive: 1.05%.

On to `COC(=O)c1cc2c(s1)N=C(c1ccccc1)N(C)P2(=O)N1CCOCC1` (stereo unspecified), for which the inhibition was inactive: 0.554%.

As for `CCC(=O)N1C2C3N(C(=O)CC)C1C1N(C(=O)CC)C(C(N1C(=O)CC)N3C(=O)CC)N2C(=O)CC`, the inhibition was inactive: -0.849%.

With `O=C(OC1CN2CCC1CC2)c1ccccc1` (stereo unspecified), the inhibition was inactive: -3.55%.

In the case of `CCc1cc(O)c([N+](=O)[O-])c(C)c1[N+](=O)[O-]`, the inhibition is inactive: -0.719%.

As for `CC(C)(C)C(=O)NC(Sc1ccccc1)C(Cl)(Cl)Cl` (stereo unspecified), the inhibition was inactive: 0.112%.

Take `CCOc1ccc(C2=NCC(CBr)S2)cc1` (stereo unspecified): the inhibition was inactive: 1.75%.

Consider `O=P1(Nc2nc3ccc(Cl)cc3s2)COc2ccccc2O1` (stereo unspecified), for which the inhibition was inactive: 0.735%.

Regarding `CC(=O)Nc1ccc(Oc2c([N+](=O)[O-])cc([N+](=O)[O-])cc2[N+](=O)[O-])cc1`, the inhibition is inactive: 2.53%.

Take `CC(=O)Nc1ccc([As](=O)(O)O)c(O)c1`: the inhibition is inactive: 3.39%.

For the compound `COC(=O)C1(C)COP(=O)(NCc2ccccc2)OC1` (stereo unspecified), the inhibition is inactive: 2.44%.

Turning to `N#C/C(=C\c1ccc(N(CCBr)CCBr)cc1)C(N)=O`, the inhibition is inactive: -56.1%.

For the compound `CC(=O)c1ccc(N2CC2c2ccncc2)cc1` (stereo unspecified), the inhibition was inactive: -15.8%.

Turning to `C[C@@H]1C=CCP(=O)(Oc2ccccc2)O1` (stereo partly specified), the inhibition is inactive: 5.32%.

With `C[C@H]1OP(=O)(Oc2ccccc2)C[C@@H]2O[C@@H]21` (stereo partly specified), the inhibition is inactive: 0.876%.

Consider `Cc1ccccc1CN(C)C(=O)COC(=O)C(O)(c1ccccc1)c1ccccc1`, for which the inhibition is inactive: -0.816%.

For `Cc1ccc(OP(=O)(Nc2nccs2)Oc2ccc(C)cc2)cc1`, the inhibition is inactive: 0.937%.

On to `COc1ccccc1OP(=O)(Nc1ccc(C)cn1)Oc1ccccc1OC`, for which the inhibition was inactive: 0.824%.

Consider `Clc1ccc(Cl)c(NC2=NCC(CBr)S2)c1` (stereo unspecified), for which the inhibition was inactive: -1.65%.

In the case of `CN1CCCC(OC(=O)C(c2ccccc2)c2ccccc2)C1` (stereo unspecified), the inhibition was inactive: 0.29%.

As to `NC(=O)c1cc([N+](=O)[O-])cc([N+](=O)[O-])c1N`, the inhibition was inactive: 0.708%.

On to `Cc1ccc(N/C(=N/P(=O)(N2CCOCC2)N2CCOCC2)N2CCOCC2)cc1`, for which the inhibition is inactive: 2.46%.

On to `CN(C(=O)Cc1ccc(Cl)c(Cl)c1)[C@H]1CCCC[C@H]1N1CCCC1`, for which the inhibition is inactive: 0.363%.

With `O=[N+]([O-])C1C(O)C(O)C([N+](=O)[O-])C(O)C1O` (stereo unspecified), the inhibition is inactive: 0.721%.

On to `CC(C)CC(=O)NC(Sc1ccc(Cl)cc1)C(Cl)(Cl)Cl` (stereo unspecified), for which the inhibition was inactive: 0.28%.

In the case of `Nc1cc(N)c2nonc2c1[N+](=O)[O-]`, the inhibition was inactive: -8.06%.

For `O=C(NC(Sc1ccncn1)C(Cl)(Cl)Cl)c1ccccc1` (stereo unspecified), the inhibition is inactive: 1.88%.

Turning to `Oc1ccccc1CNc1ccccn1`, the inhibition was inactive: 1.64%.

Consider `Cc1ccc(NP(=O)(Oc2ccccc2F)Oc2ccccc2F)nc1`, for which the inhibition is inactive: 0.797%.

With `CN(C(=O)Cc1ccc(Cl)c(Cl)c1)[C@H]1CCCC[C@@H]1N1CCCC1`, the inhibition is inactive: 2.17%.

Consider `CCOP(=O)(Nc1ccccc1)OCC`, for which the inhibition is inactive: 0.779%.

On to `Cc1cc(SC(NC(=O)c2ccc(F)cc2)C(Cl)(Cl)Cl)ncn1` (stereo unspecified), for which the inhibition is inactive: 4.12%.

As to `CCCC1OP(N)(=O)OCC1CC` (stereo unspecified), the inhibition was inactive: -1.25%.

As to `O=C(O)c1ccccc1[As](=O)(O)O`, the inhibition is inactive: 2.58%.

As for `CC(=O)Nc1ccc([As](=O)(O)O)cc1`, the inhibition was inactive: 0.9%.

With `CN(C)P(=O)(N(C)C)n1c(Nc2ccccc2)nnc1-c1ccccc1`, the inhibition is inactive: 0.103%.

Regarding `O=P(Nc1nc2ccc(Cl)cc2s1)(c1ccccc1)c1ccccc1`, the inhibition is inactive: 2.53%.

With `CCN(N=Nc1nonc1N)c1nonc1N`, the inhibition was inactive: 2.2%.

For `Nc1cccc2ccc([As](=O)(O)O)cc12`, the inhibition was inactive: -5.06%.

Regarding `O=C(Nc1cc([As](=O)(O)O)ccc1O)c1ccccc1`, the inhibition was inactive: 0.838%.

Turning to `O=P1(N(CCCl)CCCl)OCCCS1` (stereo unspecified), the inhibition is inactive: -0.166%.

For `O=[N+]([O-])c1cccc(NC2=NCC(CBr)S2)c1` (stereo unspecified), the inhibition was inactive: 0.819%.

Regarding `COC(=O)C1(C)COP(=O)(Nc2ccccc2)OC1` (stereo unspecified), the inhibition was inactive: 2.34%.

Take `O=C(O)CNc1ccc([As](=O)(O)O)cc1`: the inhibition was inactive: 0.0631%.

In the case of `CC(C)(C)C(=O)NC(Sc1ccncn1)C(Cl)(Cl)Cl` (stereo unspecified), the inhibition is inactive: -1%.

Consider `O=[N+]([O-])c1ncn(CCn2ncnc2[N+](=O)[O-])n1`, for which the inhibition is inactive: 1.65%.

Turning to `O=[N+]([O-])c1cccc2n[nH]nc12`, the inhibition was inactive: -0.0314%.

Take `CC(=O)N1C2C3N(C(C)=O)C1C1N(C(C)=O)C(C(N1C(C)=O)N3C(C)=O)N2C(C)=O`: the inhibition was inactive: 2.64%.

As to `CCc1nc2c(n1)c1c(non1O)c1c2no[n+]1[O-]`, the inhibition was inactive: 4.72%.

Regarding `O=[N+]([O-])c1cc([N+](=O)[O-])c(CCNc2ccccc2)c([N+](=O)[O-])c1`, the inhibition was inactive: 5.16%.

As for `Cc1ccc(NP(=O)(Oc2ccccc2)Oc2ccccc2)nc1`, the inhibition was inactive: -0.617%.

Consider `COc1ccc(C2=NCC(CBr)S2)cc1` (stereo unspecified), for which the inhibition is inactive: -1.04%.

Turning to `CN(C)C(=O)OCCc1n(C)cc[n+]1C`, the inhibition was inactive: -0.0113%.

`CC(C)=N/N=C(\N)N[N+](=O)[O-]`: the inhibition is inactive: 3.42%.

Turning to `CC(C)c1nc(Nc2ccccc2)n(P(=O)(N(C)C)N(C)C)n1`, the inhibition is inactive: 0.419%.

For `c1cc(-c2nn[nH]n2)ccc1-c1nn[nH]n1`, the inhibition was inactive: 1.45%.

In the case of `CC1CCN(C(=O)Oc2c(Cl)cc(Cl)c3cccnc23)CC1`, the inhibition is inactive: -0.788%.

Turning to `C[N+]1=C2C=CC=CC=C2SC12C([N+](=O)[O-])=CC([N+](=O)[O-])=C[C-]2[N+](=O)[O-]` (stereo unspecified), the inhibition is inactive: 6.19%.

For the compound `Nc1ccc([As](=O)(O)c2ccc(N)cc2)cc1`, the inhibition was inactive: 2.87%.

`CCN(/C(=N/P(=O)(N1CCOCC1)N1CCOCC1)N1CCOCC1)c1ccc(OC)cc1`: the inhibition is inactive: 1.16%.

Consider `O=C(Nc1ccncc1[N+](=O)[O-])c1ccc([N+](=O)[O-])cc1[N+](=O)[O-]`, for which the inhibition was inactive: 1.55%.

Consider `O=C(COc1ccccc1)OC1CN2CCC1CC2` (stereo unspecified), for which the inhibition was inactive: -0.191%.

Take `O=C(O)C(=O)c1ccc(N(CCCl)CCCl)cc1`: the inhibition is inactive: 0.328%.

Take `COC(=O)C1(C)COP(=O)(N2CCCC2)OC1` (stereo unspecified): the inhibition was inactive: -1.31%.

On to `COP1(=S)c2c(C)nn(CCC#N)c2N=C(c2ccc(F)cc2)N1C` (stereo unspecified), for which the inhibition was inactive: -0.201%.

For the compound `CCC(C)N(CC(C)C)C(=S)SC(NC(C)=O)C(Cl)(Cl)Cl` (stereo unspecified), the inhibition was inactive: 0.852%.

In the case of `CCOC(=O)c1ccc(NC(=O)C(C)(CCl)SC)cc1` (stereo unspecified), the inhibition is inactive: 0.392%.

On to `CSc1ccc(Nc2c([N+](=O)[O-])cc([N+](=O)[O-])cc2[N+](=O)[O-])cc1`, for which the inhibition was inactive: 5%.

For the compound `O=C(OC1CN2CCC1CC2)c1cccc([N+](=O)[O-])c1` (stereo unspecified), the inhibition was inactive: 3%.

Regarding `Cc1cc(SC(NC(=O)c2ccccc2)C(Cl)(Cl)Cl)nc(C(C)C)n1` (stereo unspecified), the inhibition was inactive: 4.24%.

As to `CCCCOc1ccc(C(=O)NCC2(N3CCCCC3)CCCCC2)cc1OC`, the inhibition is inactive: -17.1%.

Regarding `COP(=O)(OC)N1CC1c1ccccc1` (stereo unspecified), the inhibition is inactive: 1.4%.

For the compound `CC1CCNP(=O)(N(CCCl)CCCl)O1` (stereo unspecified), the inhibition was inactive: 1.69%.

As for `CCOC(=O)Nc1ccc([As](=O)(O)O)c(O)c1`, the inhibition was inactive: 2.44%.

As for `O=C(O)C(O)c1ccc(N(CCCl)CCCl)cc1` (stereo unspecified), the inhibition is inactive: 2.49%.
